This note sets out measurements from patent US10562878B2, “Cycloalkylamines as monoamine reuptake inhibitors” (Sunovion Pharmaceuticals Inc., priority 2006, dated 2020).

Amino acid sequences for entries named in this document (tags omitted).
UniProt P23975, whole entry: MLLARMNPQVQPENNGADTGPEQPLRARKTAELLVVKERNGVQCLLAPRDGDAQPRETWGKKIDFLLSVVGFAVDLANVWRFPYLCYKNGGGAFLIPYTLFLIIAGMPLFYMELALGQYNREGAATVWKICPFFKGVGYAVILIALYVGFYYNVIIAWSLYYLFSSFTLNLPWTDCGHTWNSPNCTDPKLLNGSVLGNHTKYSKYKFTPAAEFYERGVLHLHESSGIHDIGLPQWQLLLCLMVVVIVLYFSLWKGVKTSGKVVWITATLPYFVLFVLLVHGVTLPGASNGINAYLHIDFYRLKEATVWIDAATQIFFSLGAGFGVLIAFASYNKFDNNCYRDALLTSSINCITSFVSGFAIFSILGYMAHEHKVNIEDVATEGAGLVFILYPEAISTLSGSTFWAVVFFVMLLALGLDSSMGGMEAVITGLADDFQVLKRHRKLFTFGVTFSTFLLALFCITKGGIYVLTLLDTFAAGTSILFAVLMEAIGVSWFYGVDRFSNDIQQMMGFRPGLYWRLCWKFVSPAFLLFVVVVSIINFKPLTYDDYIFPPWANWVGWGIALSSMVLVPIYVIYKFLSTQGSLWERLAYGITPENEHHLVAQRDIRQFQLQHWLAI
UniProt P31645, whole entry: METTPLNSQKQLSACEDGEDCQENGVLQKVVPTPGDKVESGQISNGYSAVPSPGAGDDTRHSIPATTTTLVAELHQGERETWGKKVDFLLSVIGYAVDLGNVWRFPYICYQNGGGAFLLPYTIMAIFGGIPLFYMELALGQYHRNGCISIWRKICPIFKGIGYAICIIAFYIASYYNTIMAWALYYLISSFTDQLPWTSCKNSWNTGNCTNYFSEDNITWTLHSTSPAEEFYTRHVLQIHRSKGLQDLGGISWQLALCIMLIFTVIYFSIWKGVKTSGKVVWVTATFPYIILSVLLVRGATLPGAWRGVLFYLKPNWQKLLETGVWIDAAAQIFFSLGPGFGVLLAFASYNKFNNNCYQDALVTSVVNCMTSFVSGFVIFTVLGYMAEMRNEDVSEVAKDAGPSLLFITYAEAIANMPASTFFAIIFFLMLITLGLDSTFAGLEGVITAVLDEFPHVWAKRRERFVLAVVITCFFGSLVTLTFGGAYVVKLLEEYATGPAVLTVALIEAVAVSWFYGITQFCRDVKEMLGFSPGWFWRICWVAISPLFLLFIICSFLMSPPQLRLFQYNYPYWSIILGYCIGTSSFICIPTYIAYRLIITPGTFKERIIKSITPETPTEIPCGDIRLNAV

Test [1] has as its target DA Transporter (DAT) sites in mouse brain (Mus musculus (Mouse), UniProt Q61327). The experiment in a line: Ex vivo [3H] WIN 35428 binding to DAT sites in mouse brain after oral dosing. Conditions: mice, 60 min after treatment.
The target of test [2] is human norepinephrine transporter (Homo sapiens (Human), UniProt P23975). Nature of the test: Norepinephrine functional uptake assay, recombinant human transporter in HEK293 or MDCK cells. The format is cell-based. Conditions: hNET IC50.
Test [3] deals with human serotonin transporter (Homo sapiens (Human), UniProt P31645). The experiment in a line: Serotonin functional uptake assay, recombinant human transporter in HEK-293 cells. It counts as cell-based. Conditions: hSERT IC50.
A further test has as its system mice. Nature of the test: Mouse tail suspension test. It counts as in vivo.
Another test relates to Rats. Nature of the test: Rat forced swim test. The format is in vivo.

Structures are written as SMILES.

As to `CN(C)C[C@]1(c2ccc(Cl)c(Cl)c2)CCCC[C@H]1O` (relative stereo) [153 E2, trans-2-(3,4-dichlorophenyl)-2-((dimethylamino)methyl)cyclohexanol], the “DAT Mean Specific Binding ± S.E.M.” value in test [1] (10 mg/kg PO) amounted to 22015 ± 1912 dpm.
As usually defined, the IC50 is the point on the concentration scale where inhibition reaches its midpoint. Regarding `CNC[C@@]1(c2ccc(Cl)c(Cl)c2)CCCC[C@H]1O` (single isomer, unassigned) [133 E1, cis-2-(3,4-Dichlorophenyl)-2-((methylamino)methyl)cyclohexanol], in test [2], the IC50 was determined as 0.217 µM.
On the same count and under the same terms, next, `CNC[C@@]1(c2ccc(Cl)c(Cl)c2)CCCC[C@H]1O` (single isomer, unassigned) [133 E2, cis-2-(3,4-Dichlorophenyl)-2-((methylamino)methyl)cyclohexanol]: 0.374 µM.
Turning to `CNC[C@@]1(c2ccc(Cl)c(F)c2)CCCC[C@H]1O` (single isomer, unassigned) [141 E1, cis-2-(4-Chloro-3-fluorophenyl)-2-((methylamino)methyl)cyclohexanol], the IC50 in test [3] stood at 3.69 µM.
With `CNC[C@@]1(c2ccc(Cl)c(F)c2)CCCC[C@H]1O` (single isomer, unassigned) [141 E2, cis-2-(4-Chloro-3-fluorophenyl)-2-((methylamino)methyl)cyclohexanol], in test [3], the IC50 worked out at 2.77 µM.
Consider `CNC[C@]1(c2ccc(Cl)c(F)c2)CCCC[C@H]1O` (single isomer, unassigned) [142 E2, trans-2-(4-chloro-3-fluorophenyl)-2-((methylamino)methyl)cyclohexanol], for which the half-inhibitory concentration (IC50) in test [3] was determined as 2.32 µM.
With `CNCC1(c2ccc(Cl)c(Cl)c2)CCC(C)(O)CC1` (centres unmarked) [Compound 276, 4-(3,4-dichlorophenyl)-1-methyl-4-((methylamino)methyl)cyclohexanol], the “Mouse Tail Suspension Mean Immobility Time ± S.E.M.” value came out at 164.1 ± 5.7 with mice (10 mg/kg PO) and 160.2 ± 7.2 with mice (30 mg/kg PO). In test [1] (1 mg/kg PO), the “DAT Mean Specific Binding ± S.E.M.” value turned out to be 18155 ± 2275 dpm.
For `CN(C)CC1(c2ccc(Cl)c(Cl)c2)CCC(C)(O)CC1` (centres unmarked) [Compound 277, 4-(3,4-dichlorophenyl)-4-((dimethylamino)methyl)-1-methylcyclohexanol], the entries for the “Mouse Tail Suspension Mean Immobility Time ± S.E.M.” value in the test on mice (10 mg/kg PO) and in the test on mice (30 mg/kg PO) were 164.4 ± 6.8 and 147.1 ± 3.1, respectively. Further, the “Rat Forced Swim Climbing (Means ± S.E.M.)” value in the test on Rats (3 mg/kg PO) is reported as 9.0 ± 1.2; in the test on Rats (10 mg/kg PO), 13.8 ± 2.3; in the test on Rats (30 mg/kg PO), 35.6 ± 5.2. The figures for the “Rat Forced Swim Immobility (Means ± S.E.M.)” value with Rats (3 mg/kg PO), in the test on Rats (10 mg/kg PO) and in the test with Rats (30 mg/kg PO) were 50.4 ± 1.1, 42.5 ± 2.6 and 14.6 ± 3.5, respectively. For the same molecule, the “Rat Forced Swim Swimming (Means ± S.E.M.)” value with Rats (3 mg/kg PO) is reported as 0.8 ± 0.3; with Rats (10 mg/kg PO), 3.7 ± 0.9; with Rats (30 mg/kg PO), 6.1 ± 1.4.
